Assay [1] addresses TAX9-loaded HLA-A*02:01/β2m. The experiment in a line: SPR.
For assay [2], the target named is TAX9-loaded HLA-A*02:01/β2m. Briefly: NMR titration.

Broadly, the Kd is the constant that tells how readily two partners part at equilibrium. High values mean lower affinity, low ones higher affinity. For the substance “high-fidelity TAPBPR variant TAPBPR^HiFi (S104F, K211L, R270Q), soluble (natural protein)”, the fold reduction of KD against TAPBPR^WT in assay [1] was 10 fold. For the same substance, the Kd in assay [2] was determined as 13.9 µM.

The values above are taken from paper PMC11745410.
